From article PMC12688703, “NirA is a Cyanide‐Tolerant Nitrite Reductase Which Protects Pseudomonas aeruginosa From Self‐Poisoning” (Environmental Microbiology Reports, 2025)

Amino acid sequences for entries named in this document (tags omitted).
UniProt Q9HWQ1, entry or part of it: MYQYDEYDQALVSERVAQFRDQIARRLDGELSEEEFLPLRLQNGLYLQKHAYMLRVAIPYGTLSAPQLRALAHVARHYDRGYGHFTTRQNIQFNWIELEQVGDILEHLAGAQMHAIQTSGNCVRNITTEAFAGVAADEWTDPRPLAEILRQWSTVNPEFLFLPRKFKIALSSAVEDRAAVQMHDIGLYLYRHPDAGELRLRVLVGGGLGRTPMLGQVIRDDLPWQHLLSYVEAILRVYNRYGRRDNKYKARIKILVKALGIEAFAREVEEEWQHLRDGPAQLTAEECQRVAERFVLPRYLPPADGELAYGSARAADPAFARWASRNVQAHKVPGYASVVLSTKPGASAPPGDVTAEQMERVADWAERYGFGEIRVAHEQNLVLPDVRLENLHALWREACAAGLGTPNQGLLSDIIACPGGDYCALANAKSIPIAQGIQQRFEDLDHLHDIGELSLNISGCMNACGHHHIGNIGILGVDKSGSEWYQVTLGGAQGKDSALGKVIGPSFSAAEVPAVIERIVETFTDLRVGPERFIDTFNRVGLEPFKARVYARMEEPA

Target: T1, NirA (PA4130) (Pseudomonas aeruginosa, UniProt Q9HWQ1)
T1 construct: IMAC and SEC
Type: biochemical
Conditions: anaerobic; methyl viologen as electron donor

**Q.** For `O=NO` [potassium nitrite], which “methyl viologen oxidation at 605 nm” value is on record?
**A.** The value was “Potassium nitrite and hydrogen sulphite were used as electron acceptors for NirA and CysI”.
